Consider 3 compounds from patent US9856263B2, “Heteroaromatic compounds and their use as dopamine D1 ligands” (PFIZER INC., priority 2014, dated 2018).

Chains of the proteins cited; added tags and fusions are not shown.
UniProt P21728, whole entry: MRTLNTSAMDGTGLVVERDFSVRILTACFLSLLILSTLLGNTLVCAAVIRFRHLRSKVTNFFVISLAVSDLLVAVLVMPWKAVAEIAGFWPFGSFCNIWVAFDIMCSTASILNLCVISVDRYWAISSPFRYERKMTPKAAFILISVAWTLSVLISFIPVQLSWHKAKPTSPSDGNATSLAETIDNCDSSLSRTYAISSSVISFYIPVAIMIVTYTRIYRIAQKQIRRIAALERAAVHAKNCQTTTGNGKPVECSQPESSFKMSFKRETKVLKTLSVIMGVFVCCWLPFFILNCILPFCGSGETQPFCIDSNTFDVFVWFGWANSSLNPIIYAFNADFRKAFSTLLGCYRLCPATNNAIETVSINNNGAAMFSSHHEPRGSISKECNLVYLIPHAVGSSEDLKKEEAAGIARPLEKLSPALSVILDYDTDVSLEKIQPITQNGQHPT

The Ki is the equilibrium dissociation constant of an inhibitor or competing ligand from its target.

The assay concerns the target Human D1 Receptor (Homo sapiens (Human), UniProt P21728). The assay can be described thus: Human D1 receptor binding assay ([3H]-SCH23390 competition binding). As to conditions: over-expressing LTK human cell lines; 0.5 nM [3H]-SCH23390; 30 min at 37° C.; footnote a = single determination, b = geometric mean of ≧5 determinations; read-out: Human D1 Receptor Binding, Ki (nM); Geometric mean of 2-4 determinations (unless otherwise indicated). As for the experimental part:
D1 binding assays were performed using over-expressing LTK human cell lines. […] These ligand and tissue concentrations were used in time course studies to determine linearity and equilibrium conditions for binding. […] The pellet was resuspended in assay buffer [50 mM Tris (pH 7.4@ RT) containing 4 mM MgSO4 and 0.5 mM EDTA]. […] Non-specific binding was determined by radioligand binding in the presence of a saturating concentration of (+)-Butaclamol (10 μM), a D1 antagonist After a 30 minute incubation period at 37° C., assay samples were rapidly filtered through Unifilter-96 GF/B PEI-coated filter plates and rinsed with 50 mM Tris buffer (pH 7.4 at 4° C.). […] Ki values were calculated according to the Cheng-Prusoff equation: […]
On to `Cc1cc(Oc2nccn3cccc23)ccc1-c1c(C)ncc2nccn12` (single isomer, unassigned) [Example 2, (−)-6-methyl-5-[2-methyl-4-(pyrrolo[1,2-a]pyrazin-1-yloxy)phenyl]imidazo[1,2-a]pyrazine], for which the Ki is 20.5 nM.
The result for `Cc1cc(Oc2nccn3cccc23)ccc1-c1c(C)ncc2nccn12` (single isomer, unassigned) [Example 3, (+)-6-methyl-5-[2-methyl-4-(pyrrolo[1,2-a]pyrazin-1-yloxy)phenyl]imidazo[1,2-a]pyrazine] reads 5.5 nM.
For the compound `Cc1cc(Oc2nccn3cccc23)ccc1-c1c(C)ncc2nccn12` [Example 1, 6-methyl-5-[2-methyl-4-(pyrrolo[1,2-a]pyrazin-1-yloxy)phenyl]imidazo[1,2-a]pyrazine], the Ki turned out to be 4.5 nM.
